# NR1D1 modulator: modulates human Rev-erb alpha binding to DNA; P20393; Rev-erbα–FITC-DNA binding, fluorescence polarization, 90 min; activity, % at 10 µM; hit rate 0.79% among 370,000; AID 1259318;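 active = activity above about 14%, limit read from the data; passing the limit was not always enough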;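 also: 0% = DMSO wells with 35 nM protein and 100% = DMSO wells with 750 nM protein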
# UUG fidelity: alters start codon recognition fidelity in yeast; AID 602363; activity score, % at 18.7 µM; 350,000 tested, 0.13% active; S. cerevisiae UUG-firefly luciferase reporter, luminescence/redox ratio;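 active means replicate mean at a twofold rise or more, about +100% in these data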;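 further: firefly luciferase made from a UUG start codon reports start codon fidelity; reporter light over untreated wells divided by growth signal over untreated wells; some hits fall short of that in this replicate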
# PDI turbidity: inhibitors of human protein disulfide isomerase; AID 588391; inhibition, % at 10 µM; PDI insulin aggregation turbidity, A650, 90 min; hit rate 0.052% among 350,000;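 active = mean inhibition across replicates of 30% or more, whatever share of single replicates reach that level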
# INS-1E GSIS act: GLuc luminescence reporter in INS-1E cells, primary screen for activators of glucose-dependent secretion of insulin | INS-1E GLuc reporter insulin secretion, 2-3 h | activation, % at 16.6 µM | hit rate 0.61% among 370,000 | AID 743287;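 active = lowest replicate activation of at least 40%, so every replicate reaches that level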;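 also: 0% = median of neutral control wells and 100% = median of IBMX positive control wells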
# ERp5 inh: ERp5 (human) disulfide isomerase inhibition; inhibition, % at 9.99 µM; AID 651711; hit rate 0.05% among 350,000; Q15084; ERp5 insulin aggregation, absorbance 650 nm, 90 min;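 active = mean replicate inhibition above about 25%, with every replicate also reaching it, limit read from the data, passing the limit was not always enough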
# SMARCA2 act: increases SMARCA2 function in MMTV reporter cells; MG213 cells, MMTV-luciferase reporter, dexamethasone, overnight; hit rate 1% among 370,000; activation, % at 9.1 µM; AID 652017; in the data active = activation above about 7.8%;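 also: 0% = vehicle wells and 100% = reference activator wells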
# SMARCA2 act conf: confirmation of SMARCA2 (BRM) function activators; shares compounds with SMARCA2 act; MG213 cells, MMTV-luciferase with dexamethasone, luminescence, overnight; MG213 cells expressing E1A, Rb sequestered; DMSO wells 0%, reference activator 100%; activation, % at 9.1 µM; hit rate 30% among 3,500; AID 652260;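 active = activation above its plate's cutoff, the mean activation of tested wells plus 3 SD, cut at about 7.9% in these data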
# GAL4-VP16 Luc: GAL4-VP16 reporter activation counter-screen; AID 686939; activation, % at 9.1 µM; shares compounds with SMARCA2 act; hit rate 41% among 3,500; HEK293 GAL4-VP16 pG5luc reporter, luciferase luminescence; scaled: DMSO wells 0%, SAHA wells 100%;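 active = activation above the solvent-only control well mean plus 3 SD, averaged across control plates, cut at about 5.2% in these data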
# * marks the source's active call; other numbers are inactive results; . = no result. Only some compounds are listed: those with a hit (about 2.1% of all), similar ones and a draw of the others.
SMILES,GAL4-VP16 Luc,ERp5 inh,SMARCA2 act,UUG fidelity,NR1D1 modulator,INS-1E GSIS act,PDI turbidity,SMARCA2 act conf
O=C(CNC(=O)c1ccccc1C(=O)O)c1ccccc1,3,.,8.0*,21,7,.,1,4
O=C(CN1C(=O)NC2(CCc3ccccc32)C1=O)NCC(=O)Nc1ccc(F)cc1 (stereo not drawn),2,0,8.2*,-1,3,14,-4,-4
O=C(CN1C(=O)NC2(CCc3ccccc32)C1=O)NCc1ccc(F)cc1 (stereo not drawn),.,-4,0,-7,0,-10,-8,.
S=c1[nH]nc(Nc2cccc3ccccc23)s1,1,-2,11*,-11,0,23,0,3
Cc1cccc(CCNC(=O)c2cc(S(=O)(=O)N3CCOCC3)cn2C)c1,.,7,-2,-5,3,.,.,.
Cc1cccc(CNC(=O)c2cc(S(=O)(=O)N3CCOCC3)cn2C)c1,1,-2,14*,5,0,13,-6,2
O=C(N/N=C/c1cccc2ccccc12)c1cccnc1,3,-1,9.1*,-17,6,3,20,1
Cn1cccc1/C=N/NC(=O)c1cccnc1,1,.,8.3*,-20,-3,16,21,1
Cn1c(-c2ccccc2)c(/C=N/NC(=O)c2cccnc2)c2ccccc21,2,-3,12*,.,-4,-2,-6,6
CNC[C@H]1Oc2c(NC(=O)c3cnccn3)cccc2C(=O)N([C@@H](C)CO)C[C@@H]1C,.,-4,.,-17,.,9,.,.
C[C@H]1CN([C@@H](C)CO)C(=O)c2cc(-c3cccc(C(=O)N(C)C)c3)cnc2O[C@@H]1CN(C)C,.,3,.,-14,.,1,.,.
COc1ccc2c3c([nH]c2c1)[C@@H](CO)N(C(=O)C1CCOCC1)CC31CCN(Cc2cccc(F)c2)CC1,.,.,.,.,.,-13,.,.
COc1ccc(CN2CC3(CN(C(=O)Nc4cccc(F)c4)C3)c3c([nH]c4cc(OC)ccc34)[C@H]2CO)cc1,.,-10,.,.,.,-32,.,.
O=C(N/N=C/c1ccccn1)c1cccc([N+](=O)[O-])c1,4,-3,11*,.,-3,8,3,2
O=C(NC(=S)Nc1ccccn1)c1cccc([N+](=O)[O-])c1,7.5*,2,8.8*,-2,-2,.,1,5
O=C(N/N=C/c1ccccn1)c1ccc(NC(=O)c2cccc([N+](=O)[O-])c2)cc1,.,-3,1,.,-1,-8,-2,.
O=C(N/N=C/c1ccccn1)c1ccc(Br)cc1,25*,.,12*,.,6,-1,-2,-8
CCOc1ccc(C(=O)NC(=S)Nc2ccccn2)cc1[N+](=O)[O-],.,.,0,-21,1,.,5,.
CN(C)C(=O)C[C@@H]1CC[C@@H]2[C@H](COC[C@@H](O)CN2CC2CCCC2)O1,.,3,.,.,.,20,.,.
COc1cccc(Nc2nc(-c3cccnc3)cs2)c1,6.6*,1,11*,14,-5,33,-4,13*

# Part of the list above, reformatted:
# Order of results – GAL4-VP16 Luc	ERp5 inh	SMARCA2 act	UUG fidelity	NR1D1 modulator	INS-1E GSIS act	PDI turbidity	SMARCA2 act conf
COc1ccc2c3c([nH]c2c1)[C@@H](CO)N(C(=O)C1CCOCC1)CC31CCN(Cc2cccc(F)c2)CC1
    .	.	.	.	.	-13	.	.
S=c1[nH]nc(Nc2cccc3ccccc23)s1
    1	-2	11*	-11	0	23	0	3
O=C(N/N=C/c1ccccn1)c1ccc(Br)cc1
    25*	.	12*	.	6	-1	-2	-8
O=C(N/N=C/c1ccccn1)c1cccc([N+](=O)[O-])c1
    4	-3	11*	.	-3	8	3	2

# Later entries:
SMILES,GAL4-VP16 Luc,ERp5 inh,SMARCA2 act,UUG fidelity,NR1D1 modulator,INS-1E GSIS act,PDI turbidity,SMARCA2 act conf
CN1CCN(S(=O)(=O)c2ccc(Sc3nnnn3-c3ccccc3)c([N+](=O)[O-])c2)CC1,.,1,1,.,1,.,11,.
CC(=O)c1ccc(Sc2nnnn2-c2ccccc2)c([N+](=O)[O-])c1,2,7,8.6*,.,3,19,-7,8
Cc1ccc(-n2nc3c(c2NC(=O)c2ccco2)CS(=O)(=O)C3)cc1C,1,-6,8.8*,-8,1,9,-7,4
Cc1ccc(-n2nc3c(c2NC(=O)c2cccs2)CS(=O)(=O)C3)cc1,0,0,14*,-16,-1,37,12,1
Cc1ccc(-n2nc3c(c2NC(=O)c2ccco2)CS(=O)(=O)C3)cc1,.,-4,-1,-12,10,-1,5,.
CNC[C@H]1Oc2ccc(NC(=O)Nc3ccc(OC)cc3)cc2C(=O)N([C@H](C)CO)C[C@H]1C,.,2,.,5,.,9,.,.
COc1ccc(-c2noc(C3CCCN(C(=O)Nc4cc(C)cc(C)c4)C3)n2)cc1 (stereo not drawn),9.7*,.,10*,.,-3,.,.,1
Cc1c(F)cccc1NS(=O)(=O)c1ccccc1C#N,0,2,9.2*,-3,1,-2,0,-3
COc1ccccc1NS(=O)(=O)c1ccccc1C#N,.,.,-2,11,-3,.,-1,.
Cc1cc(-c2ccco2)c(C#N)c2nc3ccccc3n12,6.5*,.,12*,-17,-25,-5,1,41*
CCOc1ccc(NC(=S)NC(=O)c2ccco2)cc1,11*,1,10*,-19,5,-6,10,2
CC(C)NC(=O)Nc1ccc2c(c1)C(=O)N(C)[C@H]1CC[C@H](CC(=O)Nc3ccccc3)O[C@@H]1CO2,.,4,.,6,.,14,.,.
Cc1cc(=O)oc2cc(OCCCC[n+]3ccccc3)ccc12,.,-1,-2,.,5,3,4,.
Cc1cc(=O)oc2cc(OCCc3ccccc3)ccc12,21*,6,8.6*,-15,-5,13,-5,8.7*
CCOC(=O)Cc1nc(N2CCN(C(=O)C3CCCO3)CC2)c2c(C)c(C(=O)OCC)sc2n1 (stereo not drawn),1,.,11*,.,-3,.,.,2
COc1cccc(S(=O)(=O)N[C@@H]2C=C[C@H](CC(=O)NCc3ccc(Cl)cc3)O[C@@H]2CO)c1,.,.,.,.,.,-2,.,.
Cc1cc(C(=O)CSc2ncccn2)c(C)n1Cc1ccco1,8.5*,5,9.9*,-10,-3,12,-1,9.9*
Cc1cc(C(=O)CSc2nnnn2C)c(C)n1Cc1ccco1,.,4,4,.,-15,1,6,.
CN1C(=O)c2cc(NC(=O)c3cccc(F)c3)ccc2OC[C@@H]2O[C@H](CC(=O)O)CC[C@@H]21,.,.,.,1,.,22,.,.
Cc1ccc(NC(=O)N2CCN(Cc3ccc4c(c3)OCO4)CC2)cc1,.,.,-1,-18,-1,.,-5,.
O=C(Nc1ccc2c(c1)OCO2)N1CCN(Cc2ccco2)CC1,12*,-23,11*,.,-5,-2,-10,0
CCCC(=O)N1CC2(CCN(Cc3nccs3)CC2)c2c([nH]c3cc(OC)ccc23)[C@@H]1CO,.,1,.,.,.,-2,.,.
CC(=O)c1sc(NC(=O)CCS(=O)(=O)c2ccc(F)cc2)nc1C,.,4,2,-13,-7,3,-3,.
CC(=O)c1sc(NC(=O)CCS(=O)(=O)c2ccccc2)nc1C,0,1,11*,-3,-7,0,6,7.8*
